Source: PubChem (ICCB-Longwood Screening Facility, Harvard Medical School)
GIV-Gai inh: blocks GIV peptide binding to rat Galpha-i3; P08753; Galpha-i3/FITC-GIV peptide fluorescence polarization, 90 min; stronger effect = lower value; scaled: aluminum fluoride 0%, vehicle 100%; percent of control (FP), % (no concentration beside the values); 210,000 tested, 0.42% active; AID 1224905;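 active = replicate mean at 85% of control or lower, very high polarization wells dropped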;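 also: wells of about 15 µL received 100 nL stock; the first replicate is given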
HCMV NEC inh: disrupts HCMV UL50-UL53 complex binding | 190,000 compounds, 0.15% hits | HTRF UL50-UL53 interaction, normalized percent inhibition | inhibition, % (test concentration not listed); in the data active means inhibition above about 27%, passing the limit was not always enough
GIV-Gai FP conf: GIV-Galpha-i3 inhibition, FP confirmation; shares compounds with GIV-Gai inh; FITC-GIV peptide binding to Galphai3, fluorescence polarization; stronger effect = lower value; fluorescence polarization, mP at 100 µM; 580 compounds, 38% hits; AID 1259350;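 active means inhibition score of 15 or more, meaning 100 minus mean polarization as percent of control over three replicates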
GIV Gai AS conf: confirmation of inhibitors of GIV binding to human Galpha-i3 | shares compounds with GIV-Gai inh | AlphaScreen Galphai3-GIV binding, purified proteins, 90 min; stronger effect = lower value | AlphaScreen counts at 100 µM | 580 compounds, 39% hits | AID 1259351;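 active means inhibition score at or above a set limit, where the score is 100 minus the three-replicate mean percent of control signal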
* = called active by the depositor; nt = no result. In the library only some 0.46% were active in any assay of this set; here they are far more common.

SMILES	GIV-Gai inh	HCMV NEC inh	others
Cc1[nH]c2ccccc2c1/C=C/c1nc2ccccc2c(=O)n1-c1ccccc1	-70*	7
Cc1ccccc1-n1c(/C=C/c2c(C)[nH]c3ccccc23)nc2ccccc2c1=O	113	-12
CCCC[N+]1(C)C2CCC1CC(O)C2 (configuration not stated)	106	nt
CCOC(=O)C1=C(N)Oc2c(oc(CO)cc2=O)C12C(=O)N(CC(N)=O)c1ccccc12 (configuration not stated)	109	12
Cc1cc(/C=C2\C(=O)NC(=O)N(c3ccc(F)cc3)C2=O)c(C)n1-c1ccc(C(=O)O)cc1	102	-18
Cc1ccc(N2C(=O)NC(=O)/C(=C\c3cc(C)n(-c4cc(C(=O)O)cc(C(=O)O)c4)c3C)C2=O)cc1	106	32*
CN1C(=O)NC(=O)/C(=C\C=C\c2ccco2)C1=O	95	nt
O=C1NC(=S)NC(=O)C1=C/C=C/c1ccco1	110	78*
O=C(OC1N=C(c2ccccc2Cl)c2cc(Br)ccc2NC1=O)c1ccccc1 (configuration not stated)	109	nt
COc1cc(C=C2C(=O)NC(=O)NC2=O)ccc1OCc1ccc(C(=O)O)cc1	111	20

5 compounds picked at random from those above, as already listed:
SMILES	GIV-Gai inh	HCMV NEC inh	others
Cc1cc(/C=C2\C(=O)NC(=O)N(c3ccc(F)cc3)C2=O)c(C)n1-c1ccc(C(=O)O)cc1	102	-18
Cc1ccccc1-n1c(/C=C/c2c(C)[nH]c3ccccc23)nc2ccccc2c1=O	113	-12
O=C(OC1N=C(c2ccccc2Cl)c2cc(Br)ccc2NC1=O)c1ccccc1 (configuration not stated)	109	nt
COc1cc(C=C2C(=O)NC(=O)NC2=O)ccc1OCc1ccc(C(=O)O)cc1	111	20
Cc1[nH]c2ccccc2c1/C=C/c1nc2ccccc2c(=O)n1-c1ccccc1	-70*	7

(further entries)
SMILES	GIV-Gai inh	HCMV NEC inh	others
O=C1NC(=O)C(=Cc2ccc(OCc3ccc(C(=O)O)cc3)c(Br)c2)C(=O)N1	101	63*
Cc1cc2oc(=O)c3c(c2c(O)c1CN(C)C)CCCC3	nt	-17
COc1ccc2c(c1)C1(CCN(S(=O)(=O)c3cccs3)C1)C(=O)N2C (configuration not stated)	107	nt
CC1(C)CC(=O)C(C2(O)C(=O)NC(=O)NC2=O)=C(O)C1	99	63*
CCOC(=O)c1c(CSc2ccccc2)n(Cc2ccccc2)c2ccc(O)cc12	106	nt
COc1ccc(CN2C(=O)NC(=O)/C(=C\c3cccc(OC)c3OC)C2=O)cc1	98	78*
COc1ccc(-n2c(C)cc(/C=C3/C(=O)NC(=O)N(Cc4ccco4)C3=O)c2C)cc1	94	1
CCN1CCCC(N2CCN3CCCC3C2)C1 (configuration not stated)	nt	-13
CCN(CC)[P+](NC(=O)c1ccccc1)(c1ccccc1)N(CC)CC	nt	-4
Cc1[nH]c2ccccc2c1CCNCc1ccco1	nt	8
CCCCc1ncc(CNCCc2c(C)[nH]c3ccc(OC)cc23)[nH]1	21*	-13
CN1/C(=C\C=C2C(=O)NC(=O)NC2=O)C(C)(C)c2ccccc21	29*	-78
COc1cccc(C=C2C(=O)NC(=O)NC2=O)c1	nt	14
C1=C(c2ccccc2)CCN(Cc2nnc(-c3ccc4c(c3)OCO4)o2)C1	103	-2
Cc1c(C#N)c2nc3ccccc3n2c(=O)/c1=C\Nc1ccc(N2CCOCC2)c(Cl)c1	57*	nt
Cc1cc(Nc2ccc(N3CCCC3)cc2)n2c(nc3ccccc32)c1C#N	101	-41
Cc1ccc(C2=NC3(CCNCC3)NC2=S)cc1	109	-33
O=C1NC(=O)C(=Cc2ccc(OCCOc3ccc([N+](=O)[O-])cc3)cc2)C(=O)N1	101	-31
O=C1NC(=O)C(=Cc2cccc(OCCOc3ccc([N+](=O)[O-])cc3)c2)C(=O)N1	112	37*
Cc1ccc(NP(C)(=O)c2nc3c(s2)CCCC3)cc1 (configuration not stated)	nt	2
CC(CCCC(C)(C)O)NC(C)Cc1ccccc1F (configuration not stated)	nt	-7
CN1C(=O)C(=Cc2coc3ccccc3c2=O)C(=O)N(C)C1=O	103	39*
CC(c1ccccc1)N1C(=O)NC(=O)/C(=C/c2coc3ccccc3c2=O)C1=O (configuration not stated)	105	nt
CN1C(=O)C(=C/C=C/c2ccccc2)C(=O)N(C)C1=O	81*	9	GIV-Gai FP conf=74;GIV Gai AS conf=6725*
C=CCN1C(=O)NC(=O)/C(=C/C=C/c2ccccc2)C1=O	155	4
O=[N+]([O-])C=Cc1ccc2c(c1)OCO2	nt	-8
CC(C)c1ccc(CN2CCNCC2)cc1	nt	1
Cc1nc(S(=O)(=O)N2CCCCC2c2cccnc2)cn1C (configuration not stated)	85*	-4	GIV-Gai FP conf=58;GIV Gai AS conf=42642
Nc1ccc(S(=O)(=O)N2CCCCC2c2cccnc2)cc1 (configuration not stated)	103	-16
CCS(=O)(=O)Nc1cccc(C(=C2CCCCC2)c2cnc[nH]2)c1	87	-25	GIV-Gai FP conf=77;GIV Gai AS conf=6784*
COc1ccc(/C=C\c2cc(OC)cc(OC)c2)cc1	nt	-23
N#CC(C#N)=Cc1ccc(Sc2ccccc2)o1	103	-22
COc1ccc(C2N3CCCN23)cc1OC (configuration not stated)	97	-9
c1ccc2c(NC3=NCCS3)cccc2c1	83*	18	GIV-Gai FP conf=61;GIV Gai AS conf=35407*
Cc1ccccc1NC1=NCCS1	nt	-29
COC1=C[C@@H]2C3Cc4ccc(OC)c(O)c4[C@]2(CCN3C)CC1=O	nt	-2
COc1cc2c(no[n+]2[O-])n2nnnc12	80*	-96	GIV-Gai FP conf=68;GIV Gai AS conf=11443*
CN1C(=O)C(=Cc2cn(CC(=O)N3CCCC3)c3ccccc23)C(=O)N(C)C1=O	103	nt
COCCNC(=O)Cn1cc(C=C2C(=O)N(C)C(=O)N(C)C2=O)c2ccccc21	96	-6	GIV-Gai FP conf=72;GIV Gai AS conf=40853
CN1C(=O)C(=Cc2cn(Cc3ccc(Cl)cc3)c3ccccc23)C(=O)N(C)C1=O	98	-26

In the list so far, these contain bromine.
SMILES	GIV-Gai inh	HCMV NEC inh	others
O=C(OC1N=C(c2ccccc2Cl)c2cc(Br)ccc2NC1=O)c1ccccc1 (configuration not stated)	109	nt
O=C1NC(=O)C(=Cc2ccc(OCc3ccc(C(=O)O)cc3)c(Br)c2)C(=O)N1	101	63*

Continued:
SMILES	GIV-Gai inh	HCMV NEC inh	others
CC(C)c1ccc(C=C2C(=O)NC(=O)NC2=O)cc1	32*	nt	GIV-Gai FP conf=28*;GIV Gai AS conf=33706
O=C1NC(=O)C(=Cc2ccccc2)C(=O)N1	29*	99*	GIV-Gai FP conf=32*;GIV Gai AS conf=27826*
O=C1NC(=O)N(c2ccccc2)C(=O)/C1=C/c1ccccc1	97	6
O=C1NC(=O)C(=Cc2ccc(N3CCOCC3)cc2)C(=O)N1	102	-2
CCc1ccc(N2C(=O)/C(=C/c3ccc(OCC(=O)O)c(Br)c3)C(=O)NC2=S)cc1	57*	-30	GIV-Gai FP conf=34*;GIV Gai AS conf=3342*
C=CCN1C(=O)NC(=O)/C(=C/c2ccc(OCC(=O)O)c(OCC)c2)C1=O	97	4
CCn1nc(-c2cccnc2)nc2c(=O)n(C)c(=O)nc1-2	46*	71	GIV-Gai FP conf=40*;GIV Gai AS conf=42657
CCn1nc(-c2ccccc2)nc2c(=O)n(C)c(=O)nc1-2	19*	88*	GIV-Gai FP conf=16*;GIV Gai AS conf=24179
CCN(CC)C(=O)c1ccc(NC(=O)Cn2nc(-c3ccccc3)c3ccccc3c2=O)cc1	107	4
COc1ccc(/C=C/C(=O)CC(=O)/C=C/c2ccc(OC)c(OC)c2)cc1OC	nt	-28
CCN(CC)CCCC(C)NC(=O)c1cc2cccnc2n(Cc2ccc(F)cc2)c1=O (configuration not stated)	107	-27
CN1C(=O)c2ccccc2Oc2ccc(C(=O)N3CCC4(CC3)OCCO4)cc21	98	nt
N#CC1=CN(c2ccc(F)cc2)c2ccc(F)cc2S1(=O)=O	104	nt
COc1cc2c(cc1OC)C(C)=[N+](C)C(C)(C)C2	113	nt
COc1c(Cl)cc(Cl)cc1-c1c(C#N)c(N)n2c(nc3ccccc32)c1C#N	102	nt
